## scFv variants of Ab-14 (light chain) against a SARS-CoV-2 spike peptide

Target peptide (SARS-CoV-2 spike, HR2 region): PDVDLGDISGINAS

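The starting antibody came from a phage panning campaign against this peptide. The library (AAYL50) carries one to three amino acid substitutions per variant, with no insertions or deletions. In AlphaSeq, yeast of one mating type display the scFv and yeast of the other type display the target. The frequency of each diploid, read from paired DNA barcodes, reflects how well the two displayed proteins bind. A regression on co-assayed BCL2-family reference pairs converts the normalised counts of each replicate to an apparent Kd. There are three technical replicates.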

Parent: Ab-14, a human scFv built as VH, a (GGGGS)3 linker, VL. Only the CDRs of the light chain vary.
VH: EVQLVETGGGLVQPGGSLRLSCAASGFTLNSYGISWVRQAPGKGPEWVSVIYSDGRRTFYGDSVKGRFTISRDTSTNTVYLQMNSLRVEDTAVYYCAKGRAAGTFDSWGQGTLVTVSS
VL: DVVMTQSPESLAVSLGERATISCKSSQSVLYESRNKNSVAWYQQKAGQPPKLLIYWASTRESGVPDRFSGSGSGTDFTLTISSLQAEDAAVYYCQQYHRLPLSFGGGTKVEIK

Substitutions are numbered in sequence along the VL above, starting at 1 (not Kabat). Values are log10 of the apparent Kd in nM; lower means stronger binding. "ND" means that the variant was in the library but no mating with the target was seen in that replicate; the authors take this as a sign of poor binding, and no number exists. Empty control strains, which show no peptide, gave a signal in 18% of pairings with library AAYL50; the median was 4.19 and 95% of these signals were weaker than 2.99. No background was subtracted. For reference, the parent read 0.65 as the reference entry and 1.68 as a member of this library.

| changes | replicates, log10 nM |
|---|---|
| R60A S62F | ND ND ND |
| L30W K36Q W56Y | 0.86 0.97 0.92 |
| S28N N37V S103G | ND ND ND |
| Q27H S28F H98P | ND 4.82 5.20 |
| S28R E32F | 3.90 3.90 3.96 |
| E32S N35G E61R | ND 4.14 ND |
| S26Y T59W S62C | ND ND ND |
| K24T E32V R34Q | ND ND 5.03 |
| S28C S58P | 4.80 ND 5.09 |
| K36A H98R P101G | ND ND ND |
| S28N V29H | 1.24 1.34 1.37 |
| S28L S33P S38Y | 3.02 2.47 3.40 |
| S38R H98D | ND ND ND |
| L30E V39H | ND ND 5.83 |
| N37Q V39Q E61I | ND 3.48 3.54 |
| T59I S62R L100E | 4.62 3.89 ND |
| S33Q L100A | ND 1.71 ND |
| S26A S33T R60Q | ND ND 4.27 |
| A40L W56F S62D | ND 4.25 5.31 |
| S38H Q95P P101F | ND 5.59 ND |
| Y31H N37K Q95E | 1.77 1.48 1.24 |
| V29E L30A S103K | ND ND ND |
| V29Y S62I R99N | 0.95 1.00 1.04 |
| V29D N35W L100N | ND ND ND |
| L30R Q96W Y97E | ND ND ND |
| K36P W56Y Q95E | 1.36 1.46 1.48 |
| K36G N37P Q96M | 1.86 1.78 2.29 |
| S28Q N35R | 2.43 2.66 2.67 |
| Y31G N37M | 0.65 0.88 0.81 |
| W56F Q96P H98S | ND ND ND |

The last 2 entries again:

changes,"replicates, log10 nM"
Y31G N37M,0.65 0.88 0.81
W56F Q96P H98S,ND ND ND

Data: MIT Lincoln Laboratory AlphaSeq set, Engelhart et al. 2022, doi:10.1038/s41597-022-01779-4, as distributed in FLAb.